Experimental data published in US20260124309A1, “STAT6 DEGRADERS AND USES THEREOF” (Kymera Therapeutics, Inc., priority 2023, published 2026).

Amino acid sequences for entries named in this document (tags omitted). Residues count along the entry.
UniProt P42226, whole entry: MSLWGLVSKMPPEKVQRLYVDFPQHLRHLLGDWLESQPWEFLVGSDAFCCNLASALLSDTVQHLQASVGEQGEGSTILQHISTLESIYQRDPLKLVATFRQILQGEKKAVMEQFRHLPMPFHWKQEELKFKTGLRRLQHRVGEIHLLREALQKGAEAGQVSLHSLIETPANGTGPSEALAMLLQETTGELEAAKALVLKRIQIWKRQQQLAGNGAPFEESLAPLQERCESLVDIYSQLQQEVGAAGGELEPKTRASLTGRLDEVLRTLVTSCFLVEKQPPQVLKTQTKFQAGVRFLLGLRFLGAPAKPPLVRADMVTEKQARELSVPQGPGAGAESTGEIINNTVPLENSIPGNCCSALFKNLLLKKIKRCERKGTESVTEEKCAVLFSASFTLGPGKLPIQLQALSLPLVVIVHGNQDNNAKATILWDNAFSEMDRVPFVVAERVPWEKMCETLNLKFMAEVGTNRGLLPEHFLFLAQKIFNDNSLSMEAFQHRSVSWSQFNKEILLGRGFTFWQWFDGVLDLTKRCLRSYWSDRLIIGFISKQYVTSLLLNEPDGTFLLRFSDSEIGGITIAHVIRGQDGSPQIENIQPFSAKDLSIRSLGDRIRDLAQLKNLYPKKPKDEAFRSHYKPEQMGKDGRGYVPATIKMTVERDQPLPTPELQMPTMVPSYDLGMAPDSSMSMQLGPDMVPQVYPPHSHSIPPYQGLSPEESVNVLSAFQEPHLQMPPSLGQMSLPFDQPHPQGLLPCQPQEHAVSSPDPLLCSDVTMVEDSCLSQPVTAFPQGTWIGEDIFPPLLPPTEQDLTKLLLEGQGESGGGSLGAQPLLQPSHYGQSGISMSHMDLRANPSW
UniProt P42226, 123-632 limits assumed: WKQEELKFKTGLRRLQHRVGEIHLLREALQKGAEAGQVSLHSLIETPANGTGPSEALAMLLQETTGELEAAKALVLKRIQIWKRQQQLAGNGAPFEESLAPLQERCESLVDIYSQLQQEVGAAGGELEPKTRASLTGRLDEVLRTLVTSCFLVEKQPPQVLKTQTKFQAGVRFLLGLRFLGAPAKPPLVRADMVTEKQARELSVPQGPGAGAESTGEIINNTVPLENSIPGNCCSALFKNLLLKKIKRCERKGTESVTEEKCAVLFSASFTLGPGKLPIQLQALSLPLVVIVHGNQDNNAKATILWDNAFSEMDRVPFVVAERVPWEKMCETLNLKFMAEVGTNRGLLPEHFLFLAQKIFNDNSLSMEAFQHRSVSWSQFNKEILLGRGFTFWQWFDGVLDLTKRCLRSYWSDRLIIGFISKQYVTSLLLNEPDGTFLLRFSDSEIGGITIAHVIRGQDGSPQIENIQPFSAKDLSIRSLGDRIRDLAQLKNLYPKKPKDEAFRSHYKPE

Key:
[1] = biological target: biotinylated truncated STAT6 (123-632)-avi (Homo sapiens, UniProt P42226); test: STAT6 HTRF binding assay; conditions: read-out: STAT6 HTRF: Average IC50; HTRF binding, 0.15 nM biotinylated truncated STAT6 (123-632)-avi, 20 nM fluorescein-labeled probe
Protocol: HTRF binding assays were performed using 0.15 nM biotinylated truncated STAT6 (123-632)-avi purified from E. coli, 1× Streptavidin-terbium (CisBio) prepared by mixing SA-Tb in PPI detection buffer (CisBio), 20 nM proprietary fluorescein-labeled probe, and test compounds in assay buffer consisting of 50 mM HEPES-Na pH 7.5, 100 mM NaCl, 1 mM EDTA, 2 mM DTT, 0.1% Tween-20 with a final volume of 20 uL. Compound stocks were dissolved at 10 mM in 100% DMSO and 11 point titration with 3 fold serial dilution was performed in white, opaque 384 well microplates. Reaction plates were incubated at room temperature for 30 minutes. Plates were centrifuged at low rpm for 5 mins, and the ratio of fluorescence intensities were measured at emission wavelengths for fluorescein acceptor (520 nm) and terbium donor (495 nm) on Envision Plate reader. % Inhibition was calculated from the 520/495 ratio generated by using proprietary positive control compound for 100% inhibition and DMSO only reactions for 0% inhibition. Data was processed and dose response curves were generated using GraphPad Prism to determine the concentration required for inhibiting 50% of the HTRF signal (IC50).
The letter codes for IC50 (μM) include: A (<0.1 μM); B (0.1-1 μM); C (>1-10 μM); D (>10-100 μM); E (>100 μM); and F (not tested).

STAT6 = STAT6 (Homo sapiens, UniProt P42226); test: STAT6 MSD degradation in A549 cells; conditions: for DC50: read-out: STAT6 MSD degradation DC50 (nM) 24 h
Protocol: Degradation of STAT6 in cells was quantitatively measured using Meso Scale Discovery (MSD) technology. A549 cells were seeded in 96-well plates with a density of 1.5×10e4 to 5×10e5 cells per well in 100 μl fresh media. Compounds were then added to the assay plates with a final top concentration of up to 10 uM in a 1:3 dilution series with total of 9 doses. The assay plates were then incubated for 4 to 24 hours at 37° C. under 5% CO2. The assay plates were then centrifuged for 5 minutes and the cell pellets were treated with 100 μl/well RIPA lysis buffer (Boston Bioproducts, BP-115D) with protease and phosphatase inhibitors (Roche, 05892791001 and 04906837001). To prepare the MSD assay plates (MSD, L15XA), the plates were coated with the capture antibody (Abnova, H00006778) in PBS, at 40 μl/well. The plates were then incubated overnight at 4° C., washed 1 time with 150 μl/well TBST buffer (Cell Signaling Technology, #9997S) and blocked with 150 μl/well blocking buffer (MSD, R93BA-4). Cell lysates were then added to MSD assay plates and the plates were incubated at room temperature for 1 hour. The plates were then washed 3 times with 150 μl/well TBST buffer and 25 μl/well primary detection antibody (Cell Signaling Technology, #5397S). The assay plates were then incubated at room temperature for 1 hour, washed 3 times with 150 μl/well TBST buffer, and 25 μl/well secondary detection antibody, SULFO-TAG anti-rabbit antibody (MSD, R32AB-1) were added. The assay plates were then incubated at room temperature for 1 hour, washed 3 times with 150 μl/well TBST buffer, and 150 μl/well MSD reading buffer (MSD, R92TC-2) were added. The plates were then analyzed by an MSD reader. The data was analyzed by GraphPad Prism and the dose dependent STAT6 degradation was fit using the four-parameter inhibitor vs. response nonlinear regression.
The letter codes for DC50 (nM) include: A (<1 nM); B (1-10 nM); C (>10-100 nM); D (>100-1000 nM); E (>1000 nM); and F (not tested). The letter codes for Dmax (oo) include: A (>90%); B (>70-90%); C (>50-70%); D ([…]); and F (not tested).

Row | Compound | IC50 [1] [nM] | STAT6 MSD degradation Dmax % 24 h (STAT6) | DC50 (STAT6) [nM]
1 | COc1cc(C2CCN(c3cccc4c(C5CCC(=O)NC5=O)nn(C)c34)CC2)ccc1-c1cc(C2=CCCN(C(C)=O)C2)c(F)c2[nH]c(C(=O)N(C)C)cc12 (centres unmarked) | 1000 to 10000 | A (A (>90%)) | < 1
2 | C[C@H](Cn1ccnn1)C(=O)N1CCC=C(c2cc(-c3ccc(C4CCN(c5ccc(NC6CCC(=O)NC6=O)cc5F)CC4)cc3)c3cc(C(=O)N(C)C)[nH]c3c2F)C1 (some centres unmarked) | 1000 to 10000 | – | 10 to 100
3 | CC(=O)N1CCC[C@H](c2cc(-c3ccc(N4CCN(CCc5cccc6c5n(C)c(=O)n6C5CCC(=O)NC5=O)CC4)cc3OC(F)(F)F)c3cc(C(=O)N(C)C)[nH]c3c2F)C1 (some centres unmarked) | 1000 to 10000 | B (B (>70-90%)) | < 1
4 | COc1cc(N2CCN(c3ccc(-c4cc([C@@H]5CCCN(C(=O)CCn6cccn6)C5)c(F)c5[nH]c(C(=O)N(C)C)cc45)c(F)c3F)CC2)c(F)cc1NC1CCC(=O)NC1=O (some centres unmarked) | 10000 to 100000 | B (B (>70-90%)) | 10 to 100
5 | COc1cc(C2CCN(c3ccc(NC4CCC(=O)NC4=O)cc3F)CC2)ccc1-c1cc(C2=CCCN(C(=O)CCn3cccn3)C2)c(F)c2[nH]c(C(=O)N(C)C)cc12 (centres unmarked) | < 100 | A (A (>90%)) | < 1
6 | COc1cc(N2CCC(c3ccc(-c4cc(C5=CCCN(C(=O)CCn6cccn6)C5)c(F)c5[nH]c(C(=O)N(C)C)cc45)c(C)c3)CC2)c(F)cc1NC1CCC(=O)NC1=O (centres unmarked) | < 100 | B (B (>70-90%)) | 1 to 10
7 | CC(=O)N1CCC=C(c2cc(-c3ccc(C4CCN(c5cccc6c5c(C)nn6C5CCC(=O)NC5=O)CC4)cc3C)c3cc(C(=O)N(C)C)[nH]c3c2F)C1 (centres unmarked) | 1000 to 10000 | A (A (>90%)) | 10 to 100
8 | COc1cc(C2CCN(c3ccc(-c4cc(C5=CCCN(C(=O)CCn6cccn6)C5)c(F)c5[nH]c(C(=O)N(C)C)cc45)cc3)CC2)c(F)cc1NC1CCC(=O)NC1=O (centres unmarked) | 100 to 1000 | A (A (>90%)) | < 1
9 | CN(C)C(=O)c1cc2c(-c3ccc(C4CCN(c5c(F)cc(C6CCC(=O)NC6=O)cc5F)CC4)c(F)c3)cc([C@H]3CCCN(C(=O)CCn4cccn4)C3)c(F)c2[nH]1 (some centres unmarked) | 100 to 1000 | A (A (>90%)) | 1 to 10
10 | COc1cc(N2CC[C@@H](c3ccc(-c4cc(C5=CCCN(C(=O)CCn6cccn6)C5)c(F)c5[nH]c(C(=O)N(C)C)cc45)c(C)c3)C(F)(F)C2)c(F)cc1NC1CCC(=O)NC1=O (some centres unmarked) | < 100 | A (A (>90%)) | < 1
11 | Cc1cc(C2CCN(c3cccc4c3c(C)nn4C3CCC(=O)NC3=O)CC2)ccc1-c1cc(C2=CCCN(C(=O)CCn3cccn3)C2)c(F)c2[nH]c(C(=O)N(C)C)cc12 (centres unmarked) | < 100 | A (A (>90%)) | 1 to 10
12 | COc1cc(N2CCN(C3CCN(c4ccc(-c5cc(C6=CCCN(C(=O)CCn7cccn7)C6)c(F)c6[nH]c(C(=O)N(C)C)cc56)c(F)c4)CC3)CC2)c(F)cc1NC1CCC(=O)NC1=O (centres unmarked) | < 100 | A (A (>90%)) | < 1
13 | COc1cc(N2CCC(N3CCN(c4ccc(-c5cc([C@@H]6CCCN(C(=O)CCn7cccn7)C6)c(F)c6[nH]c(C(=O)N(C)C)cc56)cc4)CC3)CC2)c(F)cc1NC1CCC(=O)NC1=O (some centres unmarked) | 1000 to 10000 | C (C (>50-70%)) | 10 to 100
14 | CN(C)C(=O)c1cc2c(-c3ccc(C4CCN(c5ccc(NC6CCC(=O)NC6=O)cc5F)CC4)cc3)cc([C@H]3CCCN(C(=O)CCn4ccnn4)C3)c(F)c2[nH]1 (some centres unmarked) | < 100 | B (B (>70-90%)) | < 1
15 | COc1cc(C2CCN(c3cccc4c3n(C)c(=O)n4C3CCC(=O)NC3=O)CC2)ccc1-c1cc(C2=CCCN(C(C)=O)C2)c(F)c2sc(C(=O)N(C)C)cc12 (centres unmarked) | 1000 to 10000 | C (C (>50-70%)) | 10 to 100
16 | CN(C)C(=O)c1cc(-c2cccc(N3CCN(Cc4cccc5c4n(C)c(=O)n5C4CCC(=O)NC4=O)CC3)c2)c2nc(C3=CCCN(C(=O)CCn4cccn4)C3)sc2c1 (centres unmarked) | < 100 | – | > 1000
17 | COc1cc(C2CCN(c3cccc4c3c(C)nn4C3CCC(=O)NC3=O)CC2)ccc1-c1cc(C2=CCCN(C(C)=O)C2)c(F)c2[nH]c(C(=O)N(C)C)cc12 (centres unmarked) | 100 to 1000 | B (B (>70-90%)) | 1 to 10
18 | CN(C)C(=O)c1cc(-c2cccc(N3CCN(CCc4cccc5c4n(C)c(=O)n5C4CCC(=O)NC4=O)CC3)c2)c2nc(C3=CCCN(C(=O)CCn4cccn4)C3)sc2c1 (centres unmarked) | < 100 | – | 10 to 100
19 | CC(C)C(=O)N1CCC=C(c2cc(-c3ccc(N4CCN(CCc5cccc6c5n(C)c(=O)n6C5CCC(=O)NC5=O)CC4)cc3OC(F)(F)F)c3cc(C(=O)N(C)C)[nH]c3c2F)C1 (centres unmarked) | 1000 to 10000 | A (A (>90%)) | < 1
20 | CC(=O)N1CCC=C(c2cc(-c3cc(F)c(N4CCN(CCc5cccc6c(C7CCC(=O)NC7=O)nn(C)c56)CC4)cc3Cl)c3cc(C(=O)N(C)C)[nH]c3c2F)C1 (centres unmarked) | 10000 to 100000 | B (B (>70-90%)) | 1 to 10
21 | COc1cc(N2CC[C@H](c3ccc(-c4cc(C5=CCCN(C(=O)CCn6ccnn6)C5)c(F)c5[nH]c(C(=O)N(C)C)cc45)cc3)[C@H](F)C2)c(F)cc1NC1CCC(=O)NC1=O (some centres unmarked) | < 100 | B (B (>70-90%)) | < 1
22 | CN(C)C(=O)c1cc2c(C3CCC4(CC3)CCN(c3cccc5c3n(C)c(=O)n5C3CCC(=O)NC3=O)CC4)cc(C3=CCCN(C(=O)CCn4cccn4)C3)c(F)c2[nH]1 (centres unmarked) | < 100 | A (A (>90%)) | < 1
23 | Cn1c(=O)n(C2CCC(=O)NC2=O)c2cccc(N3CC4(CCN(c5ccc(-c6cc([C@H]7CCCN(C(=O)CCn8cccn8)C7)c(F)c7[nH]c(C(=O)N8CCC8)cc67)cc5)CC4)C3)c21 (some centres unmarked) | 1000 to 10000 | A (A (>90%)) | 1 to 10
24 | COc1cc(N2CCN(CCOCCOCCOCCOc3ccc(C(=O)c4c(-c5c(F)ccc(F)c5C)c(C(=O)N[C@@H](CS(C)(=O)=O)c5cccc(Cl)c5)cn4C)cc3)CC2)ccc1-c1cc(C2=CCCN(C(=O)CCn3ccnn3)C2)c(F)c2[nH]c(C(=O)N(C)C)cc12 | < 100 | – | –
25 | COc1cc(N2CCN(CCCCCCc3ccc(C(=O)c4c(-c5c(F)ccc(F)c5C)c(C(=O)N[C@@H](CS(C)(=O)=O)c5cccc(Cl)c5)cn4C)cc3)CC2)ccc1-c1cc(C2=CCCN(C(=O)CCn3ccnn3)C2)c(F)c2[nH]c(C(=O)N(C)C)cc12 | < 100 | – | –
